Reference: US20020025510A1, “Screening methods based on superactivated alpha V beta 3 integrin” (priority 2000, published 2002)

Biological target: integrin αvβ3 with the wild type β3 subunit, on β3-MCF7 cells (human) (UniProt P06756)
Assay: cell-based or functional assay

human MT1-MMP, on transfected MCF7 cells (MT-MCF7 and β3/MT-MCF7) (from UniProt P50281 112-582) (enzyme)
apparent molecular mass of the β3 subunit precipitated from cells, SDS-PAGE: 5 kDa
